Experimental data reported in patent US7872043B2, “Use of furan alkyls for a cellulite cosmetic treatment” (Laboratories Expanscience, priority 2004, dated 2011).

Legend:
[1] = test system: mice fattened on a high fat/high sucrose diet (HF/HS); experiment: Intraperitoneal Glucose Tolerance Test (IPGTT); assay type: in vivo; details: TZD 10 mg/kg/day
[2] = test system: GSH-S-transferase (target PXR); experiment: Liver mRNA expression, real-time Q-RT-PCR: GSH-S-transferase; assay type: in vivo, mice; details: TZD; AV102 (0.25%)
Experimental: In the liver, the mRNA expressions of 8 genes were determined in 5 mice of each group using real-time Q-RT-PCR analysis.

CN(CCOc1ccc(CC2SC(=O)NC2=O)cc1)c1ccccn1 (stereo not drawn) [TZD, Rosiglitazone]
IPGTT (glucose resistance, AUC) ([1]; curative): does not act | IPGTT (glucose resistance, AUC) ([1]; preventive): no significant AUC reduction; also recorded: reduces glucose resistance | GSH-S-transferase (target PXR) mRNA in the liver [2]: ↑

“Also recorded” adds a separate entry of the source.
